# Source: PubChem BioAssay
# miR-21 reporter – miR-21 reporter, rising signal; Potency, µM (doses to about 38.3 µM); HeLa miR-21 FLuc reporter, luciferase, 48 h; 340,000 tested, under 10 active; active = well fitted rising curve with a large enough effect; inconclusive = small, poorly fitted or top-dose-only effect; inactive = no such curve, though single readings can be large or run the other way;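 further: miR-21 action dims this reporter so a rising signal means less miR-21 action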
#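 Compounds were titrated across several concentrations (up to approximately 40 uM) and incubated 48 hours with HeLa miR-21-FLuc reporter cells (miR-21 target sequence downstream of FLuc, endogenous miR-21). Readout was firefly luciferase luminescence after lytic detection reagent.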
# DT40 TDP1 no CPT – qHTS for Inhibitors of human tyrosyl-DNA phosphodiesterase 1 (TDP1): qHTS in cells in absence of CPT | DT40 Tdp1-/- hTDP1 cells, no CPT, ATP luminescence, 48 h | Potency, µM (highest dose often 46.2 µM), actives largely listed as inhibitors | 420,000 tested, 15% active | AID 686978, 2013; note: nearly all actives have a fitted effect of over 55% in size
#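 Luminescent ATP content (CellTiter-Glo) served as the growth readout. Knockout chicken DT40 cells expressing human TDP1 were exposed to compounds without camptothecin for a minimum 48 hr at 37 °C.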
# TDP1 cell CPT – growth inhibition of DT40 Tdp1-/-;hTDP1 cells with camptothecin (screen for TDP1 inhibitors); 420,000 tested, 12% active; chicken DT40 Tdp1-/-;hTDP1 cells + 20 nM CPT, ATP luminescence, 48 h; Potency, µM (top dose mostly 46.2 µM), actives largely listed as inhibitors; note: nearly all actives have a fitted effect of over 55% in size
#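 Cell growth measured by CellTiter-Glo luminescence after a minimum 48 h, 37 C compound exposure with 20 nM CPT in Tdp1-knockout DT40 cells stably expressing hTDP1, seeded 400/well; qHTS titration format.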
# uPA surface inh – cell surface uPA generation inhibition; cell surface uPA generation assay, qHTS; Potency, µM (highest dose often 38.3 µM), usual class: inhibitors; 330,000 tested, 0.31% active; AID 540303; active = well fitted inhibition curve with a large enough effect; inconclusive = small, poorly fitted or top-dose-only effect; inactive = no such curve, though single readings can be large or run the other way; tested in mouse RAW 264.7 cells; note: nearly all actives have a fitted effect of over 55% in size
# TDP1 inh – blocks human tyrosyl-DNA phosphodiesterase 1; recombinant TDP1, AlphaScreen DNA substrate cleavage; Potency, µM (doses to about 130 µM), usual class: inhibitors; 350,000 tested, 0.28% active; AID 485290; note: nearly all actives have a fitted effect of over 40% in size
#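 Tdp1 1 nM final; 15 min RT w/ cpd; substrate 15 nM, 5 min; beads 10 ug/ml, 10 min; AlphaScreen read. Neg ctrl: no enzyme.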
# Hits are given with their value; - = inactive; ? = inconclusive; . = no result. Most compounds without a hit are left out; they make up all but 16% or so of the library. Unless noted, calls come from the whole dose curve; as a rule, active = well fitted curve in the direction sought with a large enough effect; inconclusive = small, poorly fitted or top-dose-only effect, or another doubt; inactive = no such curve, though single readings can be large; an effect the other way counts as inactive or inconclusive.
SMILES,miR-21 reporter,DT40 TDP1 no CPT,TDP1 cell CPT,uPA surface inh,TDP1 inh
C[C@H]1COC(=O)[C@H](NC(=O)OCC2c3ccccc3-c3ccccc32)C/C=C\C[C@H](CC(=O)N(CCO)Cc2ccccc2)C(=O)N1,.,9.2µM,9.2µM,?,-
C[C@@H]1COC(=O)[C@@H](NC(=O)OCC2c3ccccc3-c3ccccc32)C/C=C\C[C@@H](CC(=O)N(CCO)Cc2ccccc2)C(=O)N1,.,2.6µM,1.5µM,?,-
O=C(N[C@H]1C/C=C\C[C@H](CC(=O)N(CCO)Cc2ccccc2)C(=O)N[C@@H](c2ccccc2)COC1=O)OCC1c2ccccc2-c2ccccc21,.,13µM,7.3µM,-,-
C[C@H]1COC(=O)[C@@H](CC(=O)OC(C)(C)C)C/C=C\C[C@@H](CC(=O)N(CCO)Cc2ccccc2)C(=O)N1,.,?,?,-,-
C=CCNC(=O)CN1CCC(n2c(C)nc3cc(C(F)(F)F)ccc32)CC1,-,-,-,-,-
CN(Cc1ccc(F)cc1)S(=O)(=O)c1nnc(NC(=O)c2ccccc2)s1,-,?,-,-,-
CN(Cc1ccccc1)S(=O)(=O)c1nnc(NC(=O)c2cccc(Cl)c2)s1,-,13µM,15µM,.,-
CN(Cc1ccc(F)cc1)S(=O)(=O)c1nnc(NC(=O)c2ccc(F)cc2)s1,-,15µM,?,.,-
CC(=O)Nc1ccc(S(=O)(=O)Nc2ccc3ccccc3n2)cc1,-,-,-,-,-
O=C(c1csnn1)N1CCC2(CC1)CN(Cc1cc(C(F)(F)F)cc(C(F)(F)F)c1)C2,.,-,-,.,.
CC(=O)N1CCN(CC(=O)Nc2ccccc2Sc2ccccc2)CC1,-,23µM,?,-,-
COC(=O)C1CCN(CC(=O)Nc2ccccc2Sc2ccccc2)CC1,-,?,-,-,-
CC1CN(CC(=O)Nc2ccccc2Sc2ccccc2)CC(C)O1 (configuration not stated),-,23µM,23µM,-,-
O=C(CN1CCOCC1)Nc1ccccc1Sc1ccccc1,-,-,-,-,-
Cc1c(O)c(O)cc2c1oc1c3ccccc3oc(=O)c21,.,.,.,.,-
O=C1c2ccccc2-c2c1c1ccccc1c(=O)n2-c1ccccc1,.,12µM,12µM,-,.
O=C1c2ccccc2-c2c1c1ccccc1c(=O)n2CCO,.,7.3µM,6.5µM,-,.
COc1ccc(-n2nc(C(=O)NCC(=O)N3CCN(c4ccccc4)CC3)c3ccccc3c2=O)c(OC)c1,-,?,?,-,-
COc1ccc(-n2nc(C(=O)NCC(=O)N3CCN(c4ccc(F)cc4)CC3)c3ccccc3c2=O)c(OC)c1,-,?,21µM,-,-
COCCNC(=O)CNC(=O)c1nn(-c2ccc(OC)c(Cl)c2)c(=O)c2ccccc12,-,-,?,-,-
COc1ccc(-n2nc(C(=O)NCC(=O)NCc3ccc(F)cc3)c3ccccc3c2=O)cc1,-,18µM,-,-,-
CCOC(=O)N1CCN(C(=O)CNC(=O)c2nn(-c3ccc(OC)c(Cl)c3)c(=O)c3ccccc23)CC1,-,9.2µM,?,-,-
COc1ccc(-n2nc(C(=O)NCC(=O)NCCc3ccc(OC)c(OC)c3)c3ccccc3c2=O)cc1Cl,-,13µM,?,-,-
CC(C)C(NC(=O)c1ccc(C(C)(C)C)cc1)C(=O)N1CCCC1 (configuration not stated),-,?,?,-,-
CCN(CC(=O)Nc1c(F)cccc1F)C(=O)CCOc1ccc(C)cc1,.,-,-,-,.
SMILES,miR-21 reporter,DT40 TDP1 no CPT,TDP1 cell CPT,uPA surface inh,TDP1 inh
CCN1CCN(C(=O)CNC(=O)c2nn(-c3ccc(OC)cc3)c(=O)c3ccccc23)CC1,-,-,-,-,-
COc1ccc(-n2nc(C(=O)NCC(=O)N3CCN(Cc4ccccc4)CC3)c3ccccc3c2=O)cc1,-,?,23µM,-,-
Cc1ccc(CNC(=O)c2cccc(-n3cnnn3)c2)cc1,-,-,-,-,-
Cc1cc([N+](=O)[O-])ccc1NC(=O)Nc1ccc(F)cc1F,-,4.6µM,5.2µM,.,-
CC(C)C(=O)Nc1cccc(C(=O)Nc2cc([N+](=O)[O-])ccc2Cl)c1,-,?,-,-,-
Cc1cc([N+](=O)[O-])ccc1NC(=O)c1cccc(NC(=O)C(C)C)c1,-,23µM,?,-,-
O=C(Nc1ccc(OC(F)(F)F)cc1)Nc1cccc([N+](=O)[O-])c1,-,4.1µM,2.9µM,-,-
O=C(Nc1ccc(OC(F)(F)F)cc1)Nc1cccnc1,-,?,?,?,-
Cc1ccc(NC(=O)Nc2cccc([N+](=O)[O-])c2)cc1F,-,16µM,?,-,-
Cc1cc(NC(=O)Nc2cccc([N+](=O)[O-])c2)no1,-,-,-,-,-
Cc1ccc(NC(=O)C2Cc3ccccc3O/C2=N\O)cc1C (configuration not stated),-,-,-,-,.
Cc1ccc(CN2CCN(C3CCN(C(=O)c4ccc(C)cc4)CC3)C(=O)C2=O)cc1,-,-,-,.,-
Cc1ccc(-c2ccc(=O)[nH]n2)cc1,-,-,-,-,-
Cc1nn(C)c(=O)c(N)c1-c1cc(-c2ccc(Cl)c(Cl)c2)n[nH]1,-,6.5µM,13µM,-,-
Cc1ccc(-c2cc(-c3c(C)nn(C)c(=O)c3N)[nH]n2)cc1,-,9.2µM,16µM,-,-
CC(=O)N1CC=CC1(CC(C)C)C(=O)NCCN1CCOCC1 (configuration not stated),-,-,-,-,-
CSc1nc2cc(S(=O)(=O)N3CCCCC3)ccc2s1,-,23µM,?,-,-
CSc1nc2cc(S(=O)(=O)N3CCOCC3)ccc2s1,-,-,-,.,-
COC(=O)COc1ccc(-c2ccccc2)cc1C=O,-,23µM,?,-,-
COC(=O)COc1ccc(-c2ccc(F)cc2)cc1C=O,-,?,?,-,-
Cc1nnc2ccc(N3CCN(C(=O)c4ccccc4)CC3)nn12,-,-,-,-,-
O=S(=O)(c1ccc(Br)cc1)N1CCN(c2ccc3nnc(-c4ccccc4)n3n2)CC1,-,21µM,18µM,-,-
O=C(c1ccc(Br)o1)N1CCN(c2ccc3nnc(-c4ccccc4)n3n2)CC1,-,15µM,16µM,-,-
Cc1nc2ccccc2nc1OCC(=O)Nc1ccc(F)cc1,-,-,?,-,-
Cc1nc2c(Cl)cccc2c2c1CC(CBr)O2 (configuration not stated),-,?,15µM,-,.
C#CCN(C[C@@H]1[C@@H](OC(=O)NCc2ccccc2)[C@@H](OC(=O)NCc2ccccc2)CN(C(=O)OC(C)C)N1C(=O)OC(C)C)S(=O)(=O)c1ccc(C)cc1,.,12µM,21µM,.,.
